The source of these data is PMC11074299.

In assay [1] the target is cFLIP^tDED H7G mutant (human) (UniProt O15519). In words: crystal structure; FA^FuL_H9G-C8^FGLG-CF^H7G complex; proteins individually expressed in E. coli, complex co-purified by Ni-NTA and SEC (80 mM NaCl, 20 mM Tris pH 8.0); hanging drop, 20 °C; MR-SAD; 3.1 Å; one 1:5:4 complex per asymmetric unit; FADD DD not visible.
Assay [2] concerns the target wild-type cFLIP^tDED (human) (UniProt O15519). The experiment in a line: cryo-EM structure; FA^FuL-C8^FuL_FGLG_CADA-CF complex; Complex A without cross-linking (7.5 Å) and Complex B stabilised by GraFix, glutaraldehyde (3.7 Å); Casp-8 protease domain and FADD DD not visible.

The term stoichiometry N denotes a count of units in the complex or per binding partner. In assay [1], “cFLIP^tDED H7G mutant (from UniProt O15519 1-181) (domain or fragment)” registered a stoichiometry N of 4.
In assay [2], “wild-type cFLIP^tDED (from UniProt O15519 1-181) (domain or fragment)” came in with a stoichiometry N of 4.
